From patent US20230203485A1, “METHODS FOR MODULATING MHC-I EXPRESSION AND IMMUNOTHERAPY USES THEREOF” (Dana-Farber Cancer Institute, Inc., priority 2020, published 2023) come the findings set out here.

Experiment [1] relates to HLA I surface expression on MCC cell lines. In words: Flow cytometry for HLA-I surface expression (anti-HLA-ABC, W6/32) in MCC lines at baseline and after interferon or MEK inhibitor treatment. In kind it is cell-based, human. Conditions: two lines (FIG. 1M: MCC-290, MCC-301); 24 hours. As to the method: The overlaid black line plot indicates the percentage of tumor cells that stained positive for HLA-I by IHC of the corresponding original tumor (right y-axis).
FIG. 1M comprises graphs showing the effect of type I and type II interferons on surface MHC I expression in MCC by flow cytometry. 5×10^5 MCC cells were treated with the indicated doses of IFNα2β, IFNβ, or IFNγ for 24 hours. Representative histogram plots show cells stained with anti-HLA class I or isotype antibodies. The experiment was performed in the MCPyV− line MCC-290 (left) and the MCPyV+ line MCC-301 (right).
Cells were dissociated with Versene and incubated with 5 μL Human TruStain FcX (Fc receptor blocking solution; Biolegend, Dedham, Mass.) per million cells in […] at room temperature for 10 min. Fluorochrome-conjugated antibodies or respective isotype controls were immediately added and incubated for another 30 min at 4° C. Cells were then washed once with PBS and resuspended in PBS containing 4% paraformaldehyde and analyzed on LSR Fortessa cytometers. Additional steps were described for individual experiments as below. For upregulation of HLA Class I experiment, 5×10^5 MCC cells were treated with increasing doses of IFNα2b, IFN3, IFNγ for 24 hours, or MEK inhibitors and DMSO for 72 hours before staining with W6/32 and Live/Dead as above.
In general terms: In flow cytometry, cells or beads pass a laser one at a time.

Experiment [2] relates to surface HLA-I. Briefly: Interferon treatment of MCC lines, surface HLA-I by flow cytometry. In kind it is cell-based, human. As to conditions: two lines. On the procedure: Cells were dissociated with Versene and incubated with 5 μL Human TruStain FcX (Fc Receptor Blocking Solution; Biolegend #422302) per million cells in 100 μL at room temperature for 10 min. Fluorophore-conjugated antibodies or respective isotype controls were added and incubated for another 30 min at 4° C. Cells were then washed once with PBS and resuspended in PBS or 4% paraformaldehyde and analyzed on an LSR Fortessa cytometer. For HLA-I and HLA-II detection, the following antibodies were used: HLA-ABC (W6/32 clone) conjugated to PE (BioLegend #311406), APC (BioLegend #311410), or AF647 (Santa Cruz Biotechnology #sc32235 AF647), and HLA-DR-FITC (BioLegend #307604).

For the molecule “IFN-a-2b: type I interferon, recombinant human”, the “HLA I surface expression” value in experiment [1] is reported as “could be upregulated”.
Consider IFN-α-2b: interferon alpha-2b, for which the HLA-I upregulation entry in experiment [2] was “upregulate HLA-I”.

B1: IFN-13: type I interferon (IFNβ in FIG. 1M legend) (protein, UniProt P01574 22-187, looked up)
Interferon beta: MSYNLLGFLQRSSNFQCQKLLWQLNGRLEYCLKDRMNFDIPEEIKQLQQFQKEDAALTIYEMLQNIFAIFRQDSSSTGWNETIVENLLANVYHQINHLKTVLEEKLEKEDFTRGKLMSSLHLKRYYGRILHYLKAKEYSHCAWTIVRVEILRNFYFINRLTGYLRN
As for B1, in experiment [1], the “HLA I surface expression” value was “could be upregulated”.

B2: IFN-β: interferon beta (protein, UniProt P01574 22-187, looked up)
Interferon beta: MSYNLLGFLQRSSNFQCQKLLWQLNGRLEYCLKDRMNFDIPEEIKQLQQFQKEDAALTIYEMLQNIFAIFRQDSSSTGWNETIVENLLANVYHQINHLKTVLEEKLEKEDFTRGKLMSSLHLKRYYGRILHYLKAKEYSHCAWTIVRVEILRNFYFINRLTGYLRN
As for B2, the HLA-I upregulation result in experiment [2] is given as “upregulate HLA-I”.
